The source of these data is patent US5023359A, “Use of organic salts of copper for the treatment of honeybee's parasitic diseases” (priority 1990, dated 1991).

A short description of data set [1]: Solubility in water. Particulars: 20° C.
The test system of data set [2] is Varroa jacobsoni. In words: Action against Varroa jacobsoni in full-size hives: counting of fallen/remaining Varroas, efficiency. It counts as in vivo. Here is the method: 1°--A specific distinctive action against Varroa jacobsoni shown by the counting of the eliminated Varroas, when the hives are treated by nourishing materials with copper gluconate at different doses (0 g/l-0.2 g/l-0.5 g/l).
The honeybees have been fed with syrup of sucrose at 66% w/w containing increasing concentrations of Copper Gluconate.
Each hive was provided at its lower part with a plastic plate coated with a consistent grease. Each day at the same time, the plate was discarded and the counting of the Varroas fallen on the plate, was carried out. A grid surmounting this plate avoid that the honeybees may spontaneously proceed with the discharge of the Varroas.
The results shown in FIG. 2 have been obtained following experiments performed at full size in hives containing from 20,000 to 50,000 honeybees.
2°--The efficiency of the treatment has been defined as the ratio between the number of Varroas subsiding in the various colonies of an apiary after treatment by solutions at various concentrations, and the number of Varroas contained in the control hives, these two figures have been measured after treatment with Amitraze.
This experiment has been carried out in a series of 14 hives and the result thereof are compiled in the Table 3 figuring herein after.
These experiments allow to obtain the results of Table 3 above, and were carried out in full size on a set of 14 hives.
Each hive was given 6.75 l of syrup of sucrose at 66% w/w at various concentrations of copper gluconate ranging from 0.02 to 0.5 g/l.
Measurements of the falls of the Varroas have been performed, at first, every day then every three days starting from the initiation of the delivery of the syrup.
To this end, a plate coated with a consistent grease was arranged at the bottom of each hive and protected with a grid as above-mentioned, in order to allow the counting of the Varroas. The fall begins to be significative in relation to the control hives which have only been given pure sugar syrup, after absorption by the honeybees of 3 liters of syrup per hive in 10 days.
The counting of the remaining Varroas has been performed 2 days after the last delivery of syrup while submitting each hive to a treatment of shock by means of an acaricide (in these circumstances the marketed composition sold under the Tread Name AMITRAZE).
The efficiency of the treatment with Copper Gluconate is determined in ascribing the number of Varroas fallen during the treatment to the total number of Varroas resulting from the addition of fallen Varroas and existing Varoas.
The averages and the standard deviations have been calculated for the number of performed measures corresponding to the number of hives, this figure being mentioned between hyphens following the figures of the third column in Table 3.

The subject of data set [3] is honeybees. Nature of the data set: Appetency of the honeybees (consumption of syrup in small cases, batches of 100 honeybees). The conditions noted are these: relative to pure sugar syrup. It is filed as in vivo. The text has this: It should be noted that the pollen has been made available to the honeybees in a sufficient amount inside the small cases, without being admixed to the syrup. The determinations have been performed every day and the length of the vertical bars of the diagrams hereabove, are proportional to the deviation of the observed results. They evidence a clearly higher […] case of the utilization of the compounds of this invention. The results mentioned in the preceding paragraphs substantially relate to experiments performed by means of Copper Gluconate. […] The results of these tests are gathered in Table 7 hereinafter in which the figures correspond to measures performed on honeybees placed in small cases, having pollen to their disposal, and are means expressed in microliters per honeybee and per day for N countings.

In data set [1], Copper 1-aspartate showed a water solubility of 1%.
In data set [1], Copper 1-glutamate yielded a water solubility of 4%.
Take Copper gluconate: the results for the EFFICIENCY in data set [2] (0,2 g/l copper gluconate in syrup), in data set [2] (0,5 g/l copper gluconate in syrup) and in data set [2] (1 g/l copper gluconate in syrup) were 79,8%, 74,7% and 86,7%, respectively. Also, in data set [2] (all concentrations), the “mean efficiency with respect to the control hives” value amounted to 80±6%. Also, in data set [3] (average of tests), the “Appetency, RELATIVE VALUES / PURE SUGAR SYRUP, AVERAGE” value is reported as 102,9%. For the same substance, the “Appetency, RELATIVE VALUES / PURE SUGAR SYRUP, TEST 1” value in data set [3] (test 1 (first concentration tested)) was 105,5%. In data set [3] (test 2 (second concentration tested)), the “Appetency, RELATIVE VALUES / PURE SUGAR SYRUP, TEST 2” value was 100,3%.
